Measurements taken from ChEMBL document CHEMBL1127738, “14 alpha,14' beta-[Dithiobis[(2-oxo-2,1-ethanediyl)imino]]bis (7,8-dihydromorphinone) and 14 alpha,14' beta-[dithiobis[(2-oxo-2,1- ethanediyl)imino]]bis[7,8-dihydro-N-(cyclopropylmethyl)normorphinone]: chemistry and opioid binding properties” (J Med Chem, 1994).

Chains of the proteins cited; added tags and fusions are not shown.
UniProt P79350, whole entry, looked up: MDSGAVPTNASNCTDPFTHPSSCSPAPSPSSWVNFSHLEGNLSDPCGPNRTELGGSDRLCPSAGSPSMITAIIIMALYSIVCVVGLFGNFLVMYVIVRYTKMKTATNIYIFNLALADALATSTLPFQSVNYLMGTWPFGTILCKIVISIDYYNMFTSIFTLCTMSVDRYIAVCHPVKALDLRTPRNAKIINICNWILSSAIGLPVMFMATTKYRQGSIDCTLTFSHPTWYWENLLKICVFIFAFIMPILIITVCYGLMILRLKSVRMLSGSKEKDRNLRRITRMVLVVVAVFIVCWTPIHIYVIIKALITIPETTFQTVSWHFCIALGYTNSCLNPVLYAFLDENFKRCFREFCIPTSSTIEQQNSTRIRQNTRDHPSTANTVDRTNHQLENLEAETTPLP

Biological target: Mu-type opioid receptor (Bos taurus) (UniProt P79350)
Assay: Evaluation for the ability of mu opioid to protect the [3H]DAMGO binding site from alkylation

CN(C(=O)Cc1ccc(Cl)c(Cl)c1)C1CCCCC1N1CCCC1 (stereo unspecified)
Activity: 24
